Results on 25 compounds are retold here after published antibiotic growth screens (doi:10.1038/s41589-023-01349-8).

Each structure is given as a SMILES string. This is one part of the list.

This assay concerns A. baumannii ATCC 17978. As to the kind of experiment: relative growth (fraction of control); higher = less inhibition. The note with it: 50 µM.
`NC(=O)N[C@@H](CCC(=O)O)C(=O)O` showed a relative growth of 1.36. On to `CC(C)OC(=O)c1nnc(N)[nH]1`, for which the relative growth worked out at 0.943. The compound `CCCC12CN3CC(CCC)(CN(C1)C3[C@@H](O)[C@@H](O)[C@@H](O)CO)C2=O` (stereo not given in full) yielded a relative growth of 1. As to `S=C(Nc1ccccc1)Nc1ccc2c(c1)oc1ccccc12`, the relative growth came to 0.59. As for `CN(C)CC(=O)N[C@H]1CC[C@H](CCNC(=O)C2CCC2)O[C@H]1CO`, the figure is 1.02. As to `COc1cc(OC)c2c(=O)c(OC)c(-c3ccccc3)oc2c1`, the relative growth turned out to be 0.918. As for `c1ccc(Oc2nnc(-c3ccccc3)c3ccccc23)cc1`, the figure is 0.997; as for `Cl.NC(N)=N/C(N)=N/CCc1ccccc1`, 0.868; as for `N[C@H](C(=O)O)[C@@H](OCc1ccccc1)C(=O)O`, 0.968.

Compound `CO[C@@H]1CN(C)C(=O)c2ccc(NC(C)=O)cc2OC[C@@H](C)N(S(=O)(=O)c2cn(C)cn2)C[C@@H]1C` had a relative growth of 1.06. As for `C[C@H]1CN([C@@H](C)CO)C(=O)c2cc(C#Cc3cccnc3)cnc2O[C@H]1CN(C)Cc1ccc(F)cc1`, the figure is 0.945.

In turn, `O=C(CN1CCOCC1)N[C@@H]1CC[C@H](CCn2cc(C3CCCC3)nn2)O[C@H]1CO` returned a relative growth of 0.995. As to `CC(=O)O`, the relative growth stood at 1.08. `CC[C@@H](C)c1ccc(NC(=O)c2cc3ccccc3o2)cc1` returned a relative growth of 1.03. The same measure for `COCCOC(=O)N1C(=O)[C@@]2(c3cc(C#CC4(O)CCCCCC4)ccc31)[C@H](c1ccc(O)cc1)N1[C@H](c3ccccc3)[C@H](c3ccccc3)OC(=O)[C@H]1[C@@H]2C(N)=O`: 1.04; for `OCCN1CCN(c2ncnc3c2ncn3[C@H]2CN(Cc3ccc(Cl)cc3)C[C@@H](CO)O2)CC1`: 1.06. In the case of `C=CCN1C(=O)[C@]2(O[C@H](CCO)[C@@H]([Si](C)(C)c3ccc(OC)cc3)[C@@H]2C)c2cc(NC(=O)[C@H](C)O)ccc21`, the relative growth stood at 0.632. As for `Cc1ccc(S[C@]2(C(=O)NCCN3CCOCC3)CC(=O)N(Cc3cc(C(F)(F)F)cc(C(F)(F)F)c3)[C@@H]2c2ccc(CO)cc2)cc1`, the figure is 0.872; as for `COCC(=O)N(C)C[C@H]1Oc2cc(C#CCC3CCCC3)ccc2S(=O)(=O)N([C@H](C)CO)C[C@H]1C`, 0.763; as for `COCC#Cc1ccc2c(c1)O[C@@H](CN(C)C(=O)CN(C)C)[C@@H](C)CN([C@H](C)CO)S2(=O)=O`, 0.984. As for `O=C(Cc1ccccn1)NCC[C@H]1CC[C@@H](NC(=O)CN2CCOCC2)[C@@H](CO)O1`, the figure is 1.15. With `O=C(C[C@@H]1C=C[C@@H](NC(=O)c2ccc(F)cc2)[C@@H](CO)O1)NCc1ccncn1`, the relative growth amounted to 0.97. `Cc1nccn1CC1CCc2c(c3ccccc3n2C)C1=O.Cl` (stereo not given) registered a relative growth of 0.967. `Cc1cc(C)nc(N2CC(=O)NC2=N)n1` showed a relative growth of 0.995. As for `Cc1ccc(S(=O)(=O)N(C)C[C@@H]2Oc3ncc(C#CCC(C)C)cc3C(=O)N([C@H](C)CO)C[C@H]2C)cc1`, the figure is 0.985.
